These results are taken from PMC2995924 (International journal of high throughput screening, 2010).

The test deals with T1, Ca2+-bound S100B (Rattus norvegicus, UniProt P04631).
T1 sequence (P04631 1-92): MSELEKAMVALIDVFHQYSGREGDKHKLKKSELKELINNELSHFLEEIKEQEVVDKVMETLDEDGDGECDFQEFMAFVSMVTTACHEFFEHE
The experiment in a line: NMR 1H-15N HSQC chemical shift perturbation secondary screen. The conditions noted are these: 10-fold excess compound versus S100B (100 μM; 10 mM Ca2+). The test is classed as binding.

Regarding `CN(C)CCCN1c2ccccc2Sc2ccc(Cl)cc21` [SC0067, chlorpromazine], the “NMR (confirmed to bind S100B via NMR HSQC experiments)” value is listed as “Yes”.
